We go through one molecule from patent US6520981B1, “Significance of dosimetry in photodynamic therapy of injured arteries” (The General Hospital Corporation, priority 1999, dated 2003).

Read-outs that look alike come from different tables or passages of the source.

With `CN(C)c1ccc2nc3ccc(=[N+](C)C)cc-3sc2c1` [MB, methylene blue], the “Distribution of MB in the carotid artery wall (fluorescence)” value is “strong homogenous fluorescent signal was detected in the entire thickness of the arterial wall” (5 minutes after local delivery of 250 μg/ml MB, excitation 476 nm, emission 620-630 nm) and “high-fluorescence signal throughout the vessel wall” (rat, in vivo).
